The results in this text go back to PubChem BioAssay AID2052 (NMMLSC, 2009).

Structures are written as SMILES. The list shows a part of the results, in another mix than the full data. Some results for these compounds are left out of this collection, so the calls shown say nothing about other tests. Calls of active or inactive are those of the source.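 Rule for the calls: active = response, share of CD8 T cells binding vesicles, and their 90th percentile fluorescence all below set limits (cut at about 80% in these data, passing the limit was not always enough); inactive = the rest, inconclusive results apart.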

A short description of this assay: murine CD8 T cell vesicle adhesion modulation – mouse 2C CD8+ T cells, flow cytometry, primary screen (AID 2052).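 Note: values below 100% mean blocked vesicle binding to the CD8+ T cells.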 Conditions: 2C CD8+ T cell-vesicle binding, at 7 µM, stronger effect = lower value. Put shortly:
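Test system: purified 2C TCR transgenic mouse naive CD8+ T cells. Probe or stimulus: QL9-peptide-loaded Drosophila micro-vesicles bearing Ld, ICAM-1 and B7-1. Incubation: binding step 1.5 h, 37 °C, antibody labelling 20 min, ice. Measured by: flow cytometry of vesicle-bound cells.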
For `COc1ccc(Cl)cc1C(=O)NCC1(N(C)C)CCCCC1`, the response (vesicle binding) was inactive: 78%.

In the case of `COc1cccc(C(=O)NCC2(N3CCCCC3)CCCCC2)c1`, the response (vesicle binding) was inactive: 278%.

On to `O=C(NCC1(N2CCCCC2)CCCCC1)c1cccc(Cl)c1`, for which the response (vesicle binding) was inactive: 119%.

With `CN(C)C1(CNC(=O)c2ccc(Br)cc2)CCCCC1`, the response (vesicle binding) is inactive: 63.1%.

On to `COc1cc(C(=O)NCC2(N(C)C)CCCCC2)c([N+](=O)[O-])cc1OC`, for which the response (vesicle binding) was inactive: 30.6%.

Consider `COc1ccc(Br)c(C(=O)NCC2(N3CCCCC3)CCCCC2)c1`, for which the response (vesicle binding) was inactive: 247%.

As to `CC(C)Oc1ccc(C(=O)NCC2(N(C)C)CCCCC2)cc1`, the response (vesicle binding) is inactive: 147%.

`CN(C)c1cccc(C(=O)NCC2(N(C)C)CCCCC2)c1`: the response (vesicle binding) is inactive: 471%.

With `O=C(OC1CN2CCC1CC2)C(CO)(c1ccccc1)c1ccccc1` (centres undefined), the response (vesicle binding) is inactive: 374%.

Take `COc1cc(SC)ccc1C(=O)NCC1(N(C)C)CCCCC1`: the response (vesicle binding) is inactive: 198%.

Turning to `CCN(CC)CC(C)C(C)OC(=O)C(O)(c1ccccc1)c1ccccc1` (centres undefined), the response (vesicle binding) was inactive: 299%.

In the case of `CC(C)N1C(=O)CC2(CCN(CCOC(=O)C(O)(c3ccccc3)c3ccccc3)CC2)C1=O`, the response (vesicle binding) is inactive: 524%.

In the case of `Cc1ccc(C(=O)NCC2(N3CCCCC3)CCCCC2)cc1`, the response (vesicle binding) is inactive: 235%.

Take `O=C(NCC1(N2CCCCC2)CCCCC1)c1cc([N+](=O)[O-])ccc1Cl`: the response (vesicle binding) is inactive: 487%.

With `CN1[C@@H]2CC[C@H]1CC(OC(=O)C(O)(c1ccccc1)c1ccccc1)C2` (some centres undefined), the response (vesicle binding) was inactive: 568%.

Take `O=C(NCC1(N2CCCCC2)CCCCC1)c1cc(F)c(F)cc1Cl`: the response (vesicle binding) was inactive: 132%.

As to `C=CCN1CCN(CCOC(=O)C(O)(c2ccccc2)c2ccccc2)CC1`, the response (vesicle binding) is inactive: 293%.

On to `COc1ccc(C(=O)NCC2(N(C)C)CCCCC2)cc1`, for which the response (vesicle binding) is inactive: 119%.

With `O=C(NCC1(N2CCCCC2)CCCCC1)c1cccc(Br)c1`, the response (vesicle binding) is inactive: 251%.

Consider `Cc1cc(C(=O)NCC2(N3CCCCC3)CCCCC2)ccc1[N+](=O)[O-]`, for which the response (vesicle binding) was inactive: 204%.

In the case of `CCN1CCCC(OC(=O)C2(O)c3ccccc3C=Cc3ccccc32)C1` (centres undefined), the response (vesicle binding) is inactive: 155%.

For the compound `CN(C)C1CCCC1OC(=O)C(O)(c1ccccc1)c1ccccc1` (centres undefined), the response (vesicle binding) was inactive: 207%.

As for `CN(C)c1ccc(C(=O)NCC2(N(C)C)CCCCC2)cc1`, the response (vesicle binding) was inactive: 758%.

Regarding `Cc1ccccc1C(=O)NCC1(N2CCCCC2)CCCCC1`, the response (vesicle binding) was inactive: 242%.
